Screens as filed in PubChem.
Only some compounds are listed: those with a hit (about 3.7% of all), similar ones and a draw of the others.
IL-2 act: IL-2 activation | activation, % (series mostly up to about 46 µM) | AID 652025 | IL-2 activation reporter assay, cell-based qHTS; stimulated with anti-CD3/CD4/CD28 beads; in transgenic mouse T cells | actives 0.065% (n = 360,000); in the data active means activation above about 50%; inconclusive means mostly about 30% to 49%; further: 0% is about no effect
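Quantitative HTS in unstimulated transgenic mouse T cells, with memory T cells as non-tolerant control and PMA/ionomycin as tolerance-bypass control. Compound pretreatment lasted 60 minutes before 18 h bead stimulation; EGFP/DsRed fluorescence read.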
Nrf2 ARE act: activates Nrf2 signaling; actives 0.31% (n = 410,000); Potency, µM (doses to about 46.1 µM), for inactives: at the highest dose activation, actives largely listed as activators; AREc32 ARE-luciferase reporter (MCF7-derived line), luminescence, 24 h; further: potency means the concentration at half of the fitted maximal effect; % of control where 0% means no effect; nearly all actives have a fitted effect of over 65% in size
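AREc32 cells carrying an ARE-driven firefly luciferase reporter were seeded at 1000 cells/well in OPTI-MEM with 5% FBS, then exposed to compound for 24 hr at 37 deg C. Luminescence was read with Steady-Glo after 30 min at RT.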
A549 tox-1: A549 cytotoxicity, counter-screen for Nrf2 inhibitors; A549 ARE-Fluc cells, CellTiter-Fluor viability, 18-24 h; Potency, µM (series often up to 46 µM), inactives show at the top dose activity change, negative = cytotoxicity, actives largely listed as inhibitors; actives 0.16% (n = 390,000); AID 504648; further: potency means the concentration at half of the fitted maximal effect; on the % scale 0 is the no-effect control and ±100 the full control effect
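A549 ARE-Fluc cells in 5% FBS OPTI-MEM, 5000 cells/well, rested 2 h then exposed to compounds in concentration-response for 18-24 h at 37 °C. Viability by CellTiter-Fluor fluorescence (Ex 405/Em 525) after 30 min; luciferase luminescence (BugLite, 15 min, RT) read afterwards.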
Nrf2 block: Nrf2 pathway inhibition | actives 2.1% (n = 360,000) | AID 504444 | Potency, µM (doses to about 46 µM), for inactives: top-dose activity change, negative = inhibition, usual class: inhibitors | A549 ARE-Fluc reporter, luciferase luminescence, 18-24 h; further: potency means the concentration at half of the fitted maximal effect; on the % scale 0 is the no-effect control and ±100 the full control effect; nearly all actives have a fitted effect of over 60% in size
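A549 ARE_Fluc cells (5000/well, 5% FBS OPTI-MEM) pre-incubated 2 h, then treated with compounds 18-24 h at 37C/5% CO2 in concentration-response. CellTiter-Fluor viability read first; BugLite luciferase luminescence after 15 min at room temperature gives Nrf2 activity.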
ClpP mod: qHTS Assay for Activators of ClpP. purified B. subtilis ClpP, FRET peptide cleavage, 20 min. actives 1.9% (n = 340,000). Potency, µM (series often up to 57.5 µM), for the others: at the top dose activity change, negative = active. ATP-dependent Clp protease proteolytic subunit (Bacillus subtilis (strain 168)), P80244; active means well fitted falling curve with a large enough effect; inconclusive means small, poorly fitted or top-dose-only effect; inactive means no such curve, though single readings can be large or run the other way; further: potency means the concentration at half of the fitted maximal effect; the source files actives as falling curves though it sought activators and does not explain the sign; nearly all actives have a fitted effect of over 65% in size
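ClpP 10 microg/mL final, pH 8 Tris/KCl buffer with BSA, glycerol, Tween-20; compound pinned in; FRET-FV substrate; RT 20 min; Ex320/Em430; ΔFRET vs ADEP 5.8 microM, DMSO, no enzyme.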
miR-21 reporter: miR-21 reporter, rising signal | HeLa miR-21 FLuc reporter, luciferase, 48 h | Potency, µM (doses to about 38.3 µM), inactives show at the top dose reporter change, positive = more light | 340,000 tested, under 10 active | AID 2288; active = well fitted rising curve with a large enough effect; inconclusive = small, poorly fitted or top-dose-only effect; inactive = no such curve, though single readings can be large or run the other way;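 note: % of control where 0% means no effect; miR-21 action dims this reporter so a rising signal means less miR-21 action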
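HeLa miR-21-FLuc reporter line, endogenous miR-21; 2000 cells/well in DMEM/10% FBS; compound titration up to ~40uM final, 48 h, 37 degree Celsius; luciferase detection reagent, 15 min lysis, CCD luminescence.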
FLuc enzyme inh: blocks purified firefly luciferase in Nrf2 counterscreen. shares compounds with Nrf2 block. purified firefly luciferase, luminescence inhibition. Potency, µM (series often up to 57.5 µM), for the others: at the top dose activity change, negative = inhibition, usual class: inhibitors. actives 4% (n = 1,400). AID 720522; further: potency means the concentration at half of the fitted maximal effect; on the % scale 0 is the no-effect control and ±100 the full control effect; nearly all actives have a fitted effect of over 65% in size
A549 tox-2: A549 cytotoxicity, Nrf2 inhibitor counterscreen; A549 ARE-Fluc cells, cytotoxicity counterscreen; actives 2% (n = 1,400); shares compounds with Nrf2 block; AID 720523; Potency, µM (highest dose often 46.1 µM), for the others: at the highest dose activity change, negative = cytotoxicity, usual class: inhibitors;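 further: potency means the concentration at half of the fitted maximal effect; cells exposed to compounds for 18 to 24 hours; on the % scale 0 is the no-effect control and ±100 the full control effect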
ARE-Fluc inh: reduces Nrf2 ARE reporter signal in A549 cells. shares compounds with Nrf2 block. A549 ARE-firefly luciferase reporter, luminescence. Potency, µM (doses to about 46.1 µM), without a hit: top-dose activity change, negative = inhibition, usual class: inhibitors. actives 74% (n = 1,400); further: potency means the concentration at half of the fitted maximal effect; on the % scale 0 is the no-effect control and ±100 the full control effect; nearly all actives have a fitted effect of over 65% in size
Active calls of the source: *; ? = inconclusive; . = no result given. Unless noted, the call rests on the fitted dose curve; in most records, active means well fitted curve in the direction sought with a large enough effect; inconclusive means small, poorly fitted or top-dose-only effect, or another doubt; inactive means no such curve, though single readings can be large; an effect the other way counts as inactive or inconclusive.

Letters: A = IL-2 act; B = Nrf2 ARE act; C = A549 tox-1; D = Nrf2 block; E = ClpP mod; F = miR-21 reporter; G = FLuc enzyme inh; H = A549 tox-2; I = ARE-Fluc inh
(1) O=C(Cn1cnc2c(nc3n2CCCCC3)c1=O)Nc1ccc(F)c(Cl)c1
  A = .	B = 1%	C = 8%	D = ?	E = -3%	F = -1%	G = .	H = .	I = .
(2) Cc1ccc(NC(=O)c2sc3nc4c(cc3c2N)CN(Cc2ccccc2)CC4)cc1
  A = .	B = 9%	C = 20%	D = ?	E = -7%	F = -5%	G = .	H = .	I = .
(3) CCc1ccc(OCC2c3cc(OC)c(OC)cc3CCN2C(=O)COc2ccccc2)cc1 (stereo unspecified)
  A = .	B = 4%	C = -24%	D = .	E = -5%	F = 12%	G = .	H = .	I = .
(4) COc1ccc2cc3c(N)nn(C(=O)c4ccccc4Cl)c3nc2c1
  A = 2	B = -2%	C = -3%	D = 9.2µM*	E = 0%	F = ?	G = -28%	H = -20%	I = ?
(5) COc1ccc2cc3c(N)nn(C(=O)c4ccc(OC)c(OC)c4)c3nc2c1
  A = .	B = 0%	C = 3%	D = ?	E = -5%	F = 2%	G = .	H = .	I = .
(6) CN(C)c1ccc(/C=C/c2ccnc3ccccc23)c(F)c1
  A = .	B = .	C = .	D = .	E = 1%	F = .	G = .	H = .	I = .
(7) Cc1cc(N(C)C)cc(C)c1/C=C/c1ccnc2ccccc12
  A = .	B = .	C = .	D = .	E = 0%	F = .	G = ?	H = ?	I = 9.2µM*
(8) Cc1noc(C)c1CSc1nc2sc3c(c2c(=O)n1C)CCCC3
  A = 1	B = -1%	C = ?	D = ?	E = 1%	F = -8%	G = .	H = .	I = .
(9) C=CCn1c(SCc2c(C)noc2C)nc2sc3c(c2c1=O)CCCC3
  A = -2	B = -1%	C = ?	D = 9.2µM*	E = -5%	F = -3%	G = -1%	H = -14%	I = ?
(10) O=S(=O)(c1cccs1)N1CCN(c2ccc(O)cc2)CC1
  A = 2	B = 8%	C = -8%	D = ?	E = .	F = 7%	G = -21%	H = ?	I = 1.8µM*
(11) Cc1cc(C)cc(N2C(=O)CC(c3ccc(C(F)(F)F)cc3)C3=C2COC3=O)c1 (stereo unspecified)
  A = .	B = -1%	C = 2%	D = -12%	E = -3%	F = 1%	G = .	H = .	I = .
(12) CCc1ccc2ncc3c(-c4ccc(F)cc4)nn(CC(=O)NC4CCCCC4)c3c2c1
  A = .	B = -1%	C = 0%	D = 1.6µM*	E = 2%	F = -2%	G = 0%	H = -2%	I = ?
(13) Nc1cc[n+](CC(=O)c2ccccc2)cc1
  A = 1	B = 0%	C = -11%	D = 8.2µM*	E = 0%	F = 1%	G = 3%	H = -13%	I = ?
(14) Cc1c(N)cc[n+](CC(=O)c2ccccc2)c1C
  A = 2	B = -1%	C = -17%	D = 4.1µM*	E = .	F = -4%	G = 0%	H = -9%	I = 15µM*
(15) Cc1cc[n+](CC(=O)c2ccccc2)c2ccccc12
  A = 0	B = 0%	C = -3%	D = -14%	E = -1%	F = 6%	G = .	H = .	I = .
(16) O=C(C[n+]1ccncc1)c1ccccc1
  A = 1	B = 2%	C = 0%	D = -1%	E = 1%	F = -8%	G = .	H = .	I = .
(17) COc1ccc(CNC(=O)Cc2nn(C)c(=O)c3ccccc23)cc1
  A = 0	B = 4%	C = -20%	D = 5.8µM*	E = -3%	F = 16%	G = -14%	H = 0%	I = 4.6µM*
(18) Cn1nc(CC(=O)NCc2ccc(C(F)(F)F)cc2)c2ccccc2c1=O
  A = 9	B = 0%	C = -7%	D = ?	E = -3%	F = 10%	G = .	H = .	I = .
(19) CC(=O)c1cn(CC(=O)Nc2cccc(C)c2C)c2ccccc12
  A = -2	B = 3%	C = -5%	D = 5.2µM*	E = .	F = 20%	G = 3%	H = -4%	I = ?
(20) COc1ccc(CNC(=O)c2cccc(N3CCCS3(=O)=O)c2)cc1OC
  A = .	B = -1%	C = -10%	D = 2.6µM*	E = -3%	F = 26%	G = -1%	H = -1%	I = ?
(21) COc1ccc(C2=NCC(CSc3nnc(-c4ccc5c(c4)OCO5)o3)S2)cc1 (stereo unspecified)
  A = 0	B = 1%	C = ?	D = ?	E = -29%	F = -17%	G = .	H = .	I = .
(22) CCN(CC)S(=O)(=O)c1ccc2oc(SCC3CN=C(c4ccc(OC)cc4)S3)nc2c1 (stereo unspecified)
  A = -1	B = 0%	C = -27%	D = 6.5µM*	E = -16%	F = -8%	G = -26%	H = -12%	I = ?
(23) c1ccc(N=c2nc(-c3ccccc3)n(-c3ccccc3)s2)cc1
  A = .	B = .	C = -16%	D = ?	E = 2%	F = .	G = .	H = .	I = .
(24) O=C(Nc1ccc(F)cc1F)N1CCCN(c2ccc(C(F)(F)F)cn2)CC1
  A = -2	B = 0%	C = -18%	D = 6.5µM*	E = -2%	F = 28%	G = 2%	H = -5%	I = 8.2µM*
(25) O=C(Nc1ccccc1)N1CCN(c2ccc(C(F)(F)F)cn2)CC1
  A = -1	B = 0%	C = -4%	D = 6.5µM*	E = ?	F = 14%	G = 3%	H = -11%	I = 9.2µM*
(26) CNC(=S)Nc1ccc(N2CCN(c3ccc(C(F)(F)F)cn3)CC2)nc1
  A = 1	B = 1%	C = 0%	D = 4.1µM*	E = .	F = 4%	G = 0%	H = -4%	I = 6.5µM*
(27) Fc1ccc(NC(=S)N2CCCN(c3ccc(C(F)(F)F)cn3)CC2)c(F)c1
  A = 1	B = 3%	C = -7%	D = 2.9µM*	E = -15%	F = ?	G = 2%	H = -7%	I = 5.8µM*
(28) O=C(c1ccc2ccccc2c1)N1CCN(c2ccc(C(F)(F)F)cn2)CC1
  A = 0	B = 0%	C = -2%	D = -28%	E = -3%	F = -1%	G = .	H = .	I = .
(29) O=C(Nc1ccc(F)cc1F)N1CCN(c2ncccn2)CC1
  A = -2	B = -1%	C = 2%	D = 0%	E = -5%	F = -7%	G = .	H = .	I = .
(30) CCCN(CCC)S(=O)(=O)c1ccc(N2CCCCS2(=O)=O)cc1
  A = .	B = 0%	C = 0%	D = .	E = -2%	F = 6%	G = .	H = .	I = .

Next section (3 carried over from the part before).
Letters: A = IL-2 act; B = Nrf2 ARE act; C = A549 tox-1; D = Nrf2 block; E = ClpP mod; F = miR-21 reporter; G = FLuc enzyme inh; H = A549 tox-2; I = ARE-Fluc inh
(28) O=C(c1ccc2ccccc2c1)N1CCN(c2ccc(C(F)(F)F)cn2)CC1
  A = 0	B = 0%	C = -2%	D = -28%	E = -3%	F = -1%	G = .	H = .	I = .
(29) O=C(Nc1ccc(F)cc1F)N1CCN(c2ncccn2)CC1
  A = -2	B = -1%	C = 2%	D = 0%	E = -5%	F = -7%	G = .	H = .	I = .
(30) CCCN(CCC)S(=O)(=O)c1ccc(N2CCCCS2(=O)=O)cc1
  A = .	B = 0%	C = 0%	D = .	E = -2%	F = 6%	G = .	H = .	I = .
(31) CCN(C(=O)c1cc2c(s1)-c1ccccc1OC2)c1cc(Cl)ccc1OC
  A = .	B = -1%	C = -18%	D = ?	E = 4%	F = 22%	G = .	H = .	I = .
(32) Cc1ccc(S(=O)(=O)N2CCC(N3CCN(Cc4ccccc4)C(=O)C3=O)CC2)cc1C
  A = .	B = 3%	C = 9%	D = ?	E = -2%	F = 3%	G = .	H = .	I = .
(33) COc1ccc(Nc2ncc3c(n2)CCN(Cc2ccc(Br)s2)C3)c(OC)c1
  A = .	B = -1%	C = 7%	D = .	E = -27%	F = -1%	G = .	H = .	I = .
(34) CC1CCC(C(C)C)C(OC(=O)Cn2c(-c3ccc(F)cc3)[n+](C)c3ccccc32)C1 (stereo unspecified)
  A = -1	B = 1%	C = ?	D = 8.2µM*	E = -11%	F = ?	G = -2%	H = ?	I = 9.2µM*
(35) CC1CCC(C(C)C)C(OC(=O)Cn2c(-c3ccccc3)[n+](C)c3ccccc32)C1 (stereo unspecified)
  A = -1	B = 2%	C = ?	D = 3.7µM*	E = -3%	F = ?	G = 0%	H = ?	I = 2.1µM*
